From patent US5756454

Target: collagen-induced platelet aggregation inhibitor isolated from saliva of Triatoma pallidipennis (Triatoma pallidipennis)

With aprotenin (from UniProt P00974) the maximal collagen-induced aggregation with "Superose"-pool preincubated 15 min with protease inhibitors (52% with "Superose"-pool alone, 86% control) (% maximal aggregation) was 48.
